Laboratory results reported in patent publication US5432164A, “C2,N^6 -disubstituted adenosine derivatives” (Novo Nordisk A/S, priority 1991, dated 1995).

By UniProt entry, the sequences of proteins in these tests, tags left out.
UniProt P30543, whole entry: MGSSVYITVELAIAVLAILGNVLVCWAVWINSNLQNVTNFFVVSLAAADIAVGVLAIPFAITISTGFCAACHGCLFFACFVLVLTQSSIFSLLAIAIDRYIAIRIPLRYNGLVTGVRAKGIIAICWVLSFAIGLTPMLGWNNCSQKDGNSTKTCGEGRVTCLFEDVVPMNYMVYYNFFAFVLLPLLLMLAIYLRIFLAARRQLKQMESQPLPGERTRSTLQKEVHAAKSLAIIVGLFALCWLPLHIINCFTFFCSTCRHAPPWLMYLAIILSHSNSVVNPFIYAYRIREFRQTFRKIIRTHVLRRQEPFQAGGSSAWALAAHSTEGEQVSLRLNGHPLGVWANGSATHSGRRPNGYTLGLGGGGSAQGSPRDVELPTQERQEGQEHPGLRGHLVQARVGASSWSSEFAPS

Target: T1, adenosine A2 receptor (Rattus norvegicus, UniProt P30543)
T1 construct: from tissue
Assay: In vitro binding to adenosine A2 receptor, radioligand [3H]-CGS 21680

CC(Cc1ccccc1)Nc1ncnc2c1ncn2[C@@H]1O[C@H](CO)[C@@H](O)[C@H]1O (stereo partly drawn) [L-PIA, N-(1-phenyl-2-propyl)adenosine, reference compound]
Ki: 134 nM
